These results are taken from US8501732B2, “Aminomethyl quinolone compounds” (Hoffmann-La Roche Inc., priority 2011, dated 2013).

Chains of the proteins cited; added tags and fusions are not shown. Lines headed by an entry give the natural chain unless they say otherwise; changes in a name come on top.
UniProt P45983: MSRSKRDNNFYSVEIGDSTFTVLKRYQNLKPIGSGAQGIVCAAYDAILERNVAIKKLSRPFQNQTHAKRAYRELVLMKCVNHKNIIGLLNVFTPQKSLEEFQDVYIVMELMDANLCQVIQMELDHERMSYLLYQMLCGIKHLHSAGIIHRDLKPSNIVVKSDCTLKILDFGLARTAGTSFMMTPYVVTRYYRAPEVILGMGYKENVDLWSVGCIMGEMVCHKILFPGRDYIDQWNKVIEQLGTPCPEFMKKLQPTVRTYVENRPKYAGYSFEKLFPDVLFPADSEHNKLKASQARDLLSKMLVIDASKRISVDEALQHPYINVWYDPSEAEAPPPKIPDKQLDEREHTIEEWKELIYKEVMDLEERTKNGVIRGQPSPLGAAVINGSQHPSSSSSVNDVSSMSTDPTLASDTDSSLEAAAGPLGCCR

Counter-ions that a name gives are not always drawn.

This assay has as its target JNK1 (Homo sapiens (Human), UniProt P45983). The assay is described as follows: In Vitro JNK1 Assay (TR-FRET, phosphorylation of GST-c-Jun). In kind it is biochemical. The conditions noted are these: 0.2 nM active JNK1 kinase, 26.7 nM GST-c-Jun, 2 μM ATP, 30 min at room temperature. On the procedure:
Phosphorylation of GST-c-Jun protein (amino acid residues 1-79) was measured as JNK1 activity. […] The reaction buffer contained 50 mM HEPES, pH […], 1 mM DTT, 0.1 mM Na3VO4 and 0.2 mg/mL BSA. After 30 min. incubation at room temperature, the reaction was terminated by adding buffer containing 8 mM EDTA and a polyclonal anti-phospho-c-Jun antibody (Cell Signaling #9261L), followed by an additional incubation of 30 min. at room temperature. […] Time-resolved Fluorescence Resonance Energy Transfer (TR-FRET) signals were measured 1 hr. later on the EnVision reader (Perkin Elmer). Compound potency was assessed at 10 serially diluted concentrations. Percentage of inhibition at each concentration was determined to generate an IC50 value for each compound.
(TR-FRET usually uses a lanthanide donor and a delayed reading to cut background.)

The term IC50 denotes the concentration that gives 50% inhibition. Compound `O=C(NCc1cn(-c2ccccc2)c2cc(Cl)ccc2c1=O)c1ccc(N2C[C@@H]3C[C@H]2CN3)nc1` (stereo in doubt) [Example I-89, trifluoroacetate] registered a half-maximal inhibitory concentration (IC50) of 240 nM.
